## Antibody variant affinities, Ab-14 heavy chain, assay 1

Target peptide (SARS-CoV-2 spike, HR2 region): PDVDLGDISGINAS

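Variants in AAYL49 differ from the parent at up to three CDR positions; double and triple changes were sampled at random. AlphaSeq pools MATa yeast showing the antibodies with MATalpha yeast showing the peptide. Mating (16 h, 30 °C) was followed by selection of diploids and sequencing of their barcodes. A regression on co-assayed BCL2-family reference pairs converts the normalised counts of each replicate to an apparent Kd. The assay was run in three technical replicates.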

Ab-14 is the parent antibody, in scFv form: VH, then the linker GGGGSGGGGSGGGGS, then VL. The light chain is unchanged in all variants.
VH: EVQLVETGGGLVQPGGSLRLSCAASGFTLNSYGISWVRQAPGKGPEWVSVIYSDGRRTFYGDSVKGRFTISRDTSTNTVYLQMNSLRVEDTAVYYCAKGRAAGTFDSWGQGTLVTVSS
VL: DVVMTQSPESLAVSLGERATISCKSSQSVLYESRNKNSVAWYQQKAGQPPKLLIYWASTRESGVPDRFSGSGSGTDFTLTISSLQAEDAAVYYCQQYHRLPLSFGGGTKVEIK

Changes read parent residue, position, new residue, counted from the first residue of the VH shown. The read-out is the apparent dissociation constant on a log10 scale (nM): the lower, the stronger. "n.d." marks a missing value. The strain was present, yet no cells mated with the target were sequenced in that replicate, which points to weak or no binding. For reference, the parent read 0.65 as the reference entry and 4.11 (one replicate of three) as a member of this library. Nonspecific signal, from three strains lacking the peptide, appeared in 15% of pairings of library AAYL49, centred on 4.06 (5% of these signals below 2.83); values are not corrected for it. Also given: how often the same scFv was detected with the empty control strains, with their mean in brackets.

changes,"replicates, log10 nM",empty controls
A101G/T104R/S107Q,n.d. n.d. n.d.,0 of 9
G61C/A101F/F105P,n.d. n.d. n.d.,3 of 9 (3.80)
T28S/K65V,0.46 0.68 0.60,4 of 9 (5.20)
T28H/G55A/R100A,n.d. n.d. 3.66,1 of 9 (4.08)
Y60D/K65D/A102L,4.81 n.d. n.d.,2 of 9 (4.33)
S35L/F105S,3.64 n.d. n.d.,6 of 9 (4.45)
V50I/D54W/F105L,n.d. n.d. n.d.,1 of 9 (3.48)
N30V/S53K/V64L,n.d. n.d. n.d.,0 of 9
G26T/T58R/K65Y,3.27 3.27 3.32,0 of 9
Y60W/T104R,n.d. n.d. n.d.,1 of 9 (3.47)
T58I/G99Y/S107M,n.d. n.d. n.d.,0 of 9
G26C/S63A/A101I,1.30 1.40 1.66,3 of 9 (3.57)
R56I/V64L,2.26 2.65 3.15,1 of 9 (3.35)
F27S/N30A/S31P,n.d. 4.33 n.d.,0 of 9
V64G/D106K,6.59 5.69 4.67,5 of 9 (4.35)
N30Q/Y52S,n.d. n.d. n.d.,0 of 9
T28V/V64F,0.78 0.90 0.98,0 of 9
T28M/Y52L/V64G,n.d. n.d. n.d.,2 of 9 (4.30)
D54V/S63M/G99T,n.d. n.d. n.d.,0 of 9
N30E/S31C/I34R,n.d. n.d. 3.37,7 of 9 (4.41)
G26Q/R56K/A101W,n.d. n.d. n.d.,0 of 9
Y60M/G61I/S63E,0.54 0.72 0.57,2 of 9 (3.75)
S35M/G55K/D106F,n.d. n.d. n.d.,1 of 9 (2.48)
G26S/D54H,n.d. n.d. n.d.,3 of 9 (3.71)
V50T/A101Q,2.12 3.50 2.37,1 of 9 (3.04)
N30Q/I34K/R56H,0.92 1.17 1.16,1 of 9 (5.69)
Y32H/D62S/V64R,4.99 3.01 4.49,2 of 9 (3.58)
R57D/G103V,n.d. n.d. n.d.,3 of 9 (4.56)
S53H/D54K/G99R,n.d. n.d. n.d.,2 of 9 (3.79)
Y32N/K65L/G103Q,n.d. n.d. 2.88,1 of 9 (4.28)
S35R/Y52R/R100W,n.d. 4.73 n.d.,1 of 9 (3.33)
T28Q/G55M/A102W,n.d. n.d. n.d.,0 of 9
G33K/R57W,n.d. n.d. n.d.,0 of 9
Y60N/F105Q,4.23 n.d. n.d.,1 of 9 (4.02)
D62E/A101T/S107L,2.22 2.49 2.07,2 of 9 (3.77)
F59Q/D62M/A102F,n.d. 4.44 5.44,5 of 9 (4.74)
S31W/T58C/T104R,n.d. n.d. 3.37,0 of 9
D54C/G99I/T104I,5.28 3.95 n.d.,2 of 9 (4.28)
G55N/D62C/A101P,n.d. n.d. n.d.,2 of 9 (4.12)
L29R/N30D/T104Q,n.d. n.d. n.d.,0 of 9
L29T/F59K/S107T,n.d. 4.53 n.d.,2 of 9 (3.21)
G26C/R56G/D106R,4.97 5.18 n.d.,3 of 9 (3.82)
S53P/R57N/T104P,5.85 n.d. n.d.,2 of 9 (4.16)
G99K/G103Y,5.70 n.d. n.d.,0 of 9
D62T/A101Q/A102H,n.d. n.d. 4.16,2 of 9 (3.78)
G26Y/I34F/D54R,4.11 n.d. n.d.,6 of 9 (4.43)
G55L/G99P/T104A,n.d. n.d. n.d.,0 of 9
F27M/D54L/F105Y,n.d. n.d. n.d.,0 of 9
F27N/S35M/D54S,n.d. n.d. n.d.,1 of 9 (3.52)
N30M/I51S/D62C,n.d. n.d. n.d.,0 of 9

The 4 strongest on average among those seen in every replicate, once more:

changes	replicates, log10 nM	empty controls
T28S/K65V	0.46 0.68 0.60	4 of 9 (5.20)
Y60M/G61I/S63E	0.54 0.72 0.57	2 of 9 (3.75)
T28V/V64F	0.78 0.90 0.98	0 of 9
N30Q/I34K/R56H	0.92 1.17 1.16	1 of 9 (5.69)

The measurements come from Engelhart et al. 2022 (doi:10.1038/s41597-022-01779-4) through the FLAb antibody collection.